We go through one molecule from patent publication US12178827B2, “Nicotinyl riboside compounds and their uses” (MitoPower LLC, priority 2018, dated 2024).

“And” between values parts separate entries of the source, which are not always exact repeats. Equal values may be shown once.

Assay [1] concerns Jurkat cells. Briefly: NAD+ level after MNNG-induced NAD+ depletion (NAD/NADH Glo assay), Jurkat cells. Type of assay: cell-based. Particulars: no test compound.
Assay [2] relates to Jurkat cells. Briefly: MNNG-induced cytotoxicity / cytoprotection (CellTiter-Blue Cell Viability Assay), Jurkat cells. The conditions noted are these: no test compound. (In general: Alamar Blue is a resazurin reagent that responds to reducing activity.)

Take `CN(N=O)C(=N)N[N+](=O)[O-]`: the “depletion of NAD+ level at 4 hr” value was 92.1% in the assay on Jurkat cells [1] (75 μM MNNG for 30 min); 76.9% and 94% in the assay on Jurkat cells [1] (100 μM MNNG for 30 min). The “cytotoxicity at 4 hr” value turned out to be 87% in the assay with Jurkat cells [2] (75 μM MNNG for 30 min), 63.2% in the assay on Jurkat cells [2] (150 μM MNNG for 30 min) and 78% with Jurkat cells [2] (200 μM MNNG for 30 min).
